Data taken from US20230049115A1, “SYSTEM AND METHOD FOR TARGET THERMAL ANALYSIS IN COMPLEX FLUIDS” (Portland State University, priority 2021, published 2023).

Test: DSC melting temperature of pure proteins and DNA hairpin in standard buffer (Example 2)
Type: physicochemical
Settings: standard buffer pH=7.4, independent of concentration
Protocol: Chemicals and reagents: Standard buffer for all experiments contained 150 mM NaCl, 10 mM potassium phosphate, 15 mM sodium citrate adjusted to pH=7.4 with hydrochloric acid. Pure Proteins: Human Serum Albumin (HSA) (≥99% pure, Lot number: SLBT8667) and lysozyme (recombinant, expressed in rice, Lot number: SLCH2681). The above proteins were prepared in standard buffer and stored at 4° C. for at least 24 hours before use. Concentrations of HSA and lysozyme were confirmed spectrophotometrically at A280.
DNA: The DNA was a 20-base pair hairpin purchased from IDT and received following a standard desalting routine. The DNA standard sequence is 5′-[…]-3′ (SEQ ID NO: 6). Lyophilized DNA was resuspended in standard buffer and stored at 4° C. DNA concentration matched the manufacturer specification as determined spectrophotometrically at A260.
DSC Measurements: DSC melting experiments were made using a CSC differential scanning microcalorimeter (now T.A. instruments, New Castle, Del.). […]
Baselines of the raw ΔCp or μcal versus temperature thermograms were determined using a four-point polynomial fit, over the temperature range of the transition, consistent with previous methods (Eskew et al., Anal Biochem 2021, 612:113843; Koslen et al., Adv in Biol Chem 2019, 9; Eskew et al., Anal Biochem 2021, 628:114293). […]

## HSA: Human Serum Albumin, ≥99% pure
  Tm: 63.62±0.11 °C
